Test results taken from paper PMC7278359, “Small molecule AX-024 reduces T cell proliferation independently of CD3ϵ/Nck1 interaction, which is governed by a domain swap in the Nck1-SH3.1 domain” (The Journal of Biological Chemistry, 2020).

Tests used:
dimeric Nck1-SH3.1 = experiment: Ligand-observed NMR with dimeric Nck1-SH3.1; assay type: binding, human; details: 50 μM ligand, 10 μM dimeric Nck1-SH3.1 (residues 1–61), pH 6.5, 150 mM NaCl, 27 °C
Description: (§1) NMR spectra were recorded on a Bruker 600-MHz Avance NEO spectrometer equipped with a cryogenic QCI probe head at 27 °C in 25 mM […], 150 mM NaCl. The Topspin 4.0 software (Bruker, Fällanden) was used for spectrometer operation and data processing. For ^1H ligand-observed measurements, a relaxation filtered pulse sequence utilizing a spinlock of 50 ms was applied. 1D spectra were acquired with 128 scans, a sweep width of 26 ppm, and an acquisition time of 2 s. 2D ^1H-^15N HSQC spectra with natural ^15N isotope abundance were recorded over 72 h with a spectral width of 16 ppm and 35 ppm in the proton and nitrogen dimensions, respectively, with 256 increments (complex) and 1000 scans per increment. A relaxation delay of 1 s was used between scans. For the DOSY measurements (reviewed in Ref. [51]), the Bruker pulse sequence ledbpgp2s with a diffusion delay of 50 ms and a gradient length of 600 μs was used. The gradient strength was varied from 5 to 95% to record 16 increments of 512 scans with a sweep width of 18 ppm and a relaxation delay of 1 s.
(§2) Samples for ligand-observed measurements were prepared in 25 mM sodium phosphate buffer, pH 6.5, 150 mM NaCl. One sample contained 50 μM AX-024, and the other contained 50 μM CD3ϵ peptide.

monomeric Nck1-SH3.1 = experiment: Ligand-observed NMR with monomeric Nck1-SH3.1; assay type: binding, human; details: 50 μM ligand, 10 μM monomeric Nck1-SH3.1 (residues 1–61), pH 6.5, 150 mM NaCl, 27 °C
Description: as §1, §2

`CC(C)[C@H](NC(=O)[C@@H]1CCCN1C(=O)[C@@H]1CCCN1C(=O)[C@@H]1CCCN1C(=O)[C@H](CCCNC(=N)N)NC(=O)[C@H](CCC(=O)O)NC(=O)[C@H](CCCCN)NC(=O)[C@H](CC(N)=O)NC(=O)[C@H](CCC(N)=O)NC(=O)CNC(=O)[C@@H](N)CCCNC(=N)N)C(=O)N1CCC[C@H]1C(=O)N[C@@H](CC(N)=O)C(=O)N1CCC[C@H]1C(=O)N[C@@H](CC(=O)O)C(=O)N[C@@H](Cc1ccc(O)cc1)C(N)=O` was tested, and the “ligand-observed NMR, spectral change / line broadening” value (dimeric Nck1-SH3.1) was “much less line broadening”, the “ligand-observed NMR, spectral change / line broadening” value (dimeric Nck1-SH3.1; listed as CD3ϵ peptide) was “much smaller line broadening” and the “ligand-observed NMR, spectral change / line broadening” value (monomeric Nck1-SH3.1) was “strong line broadening”. For the same molecule, the “ligand-observed NMR, spectral change / line broadening” value (monomeric Nck1-SH3.1; listed as CD3ϵ peptide) was “significant line broadening”.
